The list shows a part of the results, in another mix than the full data. Activity calls are given as the source filed them.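 The calls were made as follows: active = activation above the run cutoff, the mean activation of all test compounds plus 3 SD (cut at about 40% in these data); inactive = the rest.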

The experiment in a line: ATP EC20 calcium response enhancers, parental CHO-K1 – cell-based, Fluo-8 calcium fluorescence, full deck, 1536-well, counter-screen for M1 PAM project, primary screen (AID 602247).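 Also: peak over basal fluorescence ratio in a 140 s read after ATP addition.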 The following applies: parental CHO-K1, ATP EC20, Fluo-8 calcium fluorescence; at 3 µM; active compounds read high; 0% at ATP EC20, 100% at ATP max.
Regarding `CCC1=CC2Cc3nc4ccc(Cl)cc4c(N)c3C(C1)C2` (centres undefined), the activation is inactive: 25.3%.
For the molecule `O=P1(Nc2ccccn2)COc2ccccc2OC1`, the activation was inactive: 12%.
As to `CCOP(=O)(NC(=NC(C)c1ccccc1)NC(C)c1ccccc1)OCC` (centres undefined), the activation was inactive: 6.69%.
For `CN(CCCl)Cc1cc(Cl)c(NC2=NCCN2)c(Cl)c1`, the activation is inactive: 16.7%.
The same measure for `CCOP(=O)(Nc1ccc(C)cn1)OCC`: inactive: 4.91%; for `Clc1n[nH]nc1-c1nn[nH][15n]1`: inactive: -7.66%.
With `O=P1(N(CCCl)CCCl)NCCC(C(F)(F)F)O1` (centres undefined), the activation was inactive: 35.5%.
Regarding `CC(C)(C)C(=O)NC(Sc1ncccn1)C(Cl)(Cl)Cl` (centres undefined), the activation is inactive: -8.9%.
The same measure for `COc1ccccc1CNC(=O)COC(=O)C(O)(c1ccccc1)c1ccccc1`: inactive: 10.7%; for `CN(C(=O)Cc1ccc(Cl)c(Cl)c1)[C@@H]1CCCC[C@H]1N1CCCC1`: inactive: -4.22%; for `CC(C)/C=N\N=C(\N)N[N+](=O)[O-]`: inactive: 9.41%.
In the case of `CC1(CBr)Cn2c(nc3ccccc3c2=O)S1` (centres undefined), the activation is inactive: 5.16%.
Turning to `Cc1nn(-c2ccccc2)c2c1P(=O)(N1CCOCC1)N(C)C(c1ccccc1)=N2` (centres undefined), the activation is inactive: -1.93%.
Regarding `Cc1ccc(C(=O)OC2CN3CCC2CC3)cc1` (centres undefined), the activation is inactive: 0.08%.
The value for `CC1CCC(C(C)C)C(OP(=O)(Nc2ccccn2)c2ccccc2)C1` (centres undefined) was inactive: 4.43%.
Turning to `O=C(/C=C/c1ccccc1)OC1CN2CCC1CC2` (centres undefined), the activation was inactive: 25.9%.
For `CCCC1OP(=O)(Nc2ccccc2)OCC1CC` (centres undefined), the activation was inactive: 19.3%.
The value for `Cc1ccc(S(=O)(=O)N(CCCN)CCCc2c(C)nc(N)[nH]c2=O)cc1` was inactive: 16%.
The same measure for `O=P1(Nc2ncccn2)COc2ccccc2OC1`: inactive: 12.1%; for `Nc1cccc([As](=O)(O)c2ccccc2)c1`: inactive: 3.63%.
The value for `NS(=O)(=O)c1cccc(NC(=O)COC(=O)C(O)(c2ccccc2)c2ccccc2)c1` was inactive: -8.09%.
For the molecule `O=P1(Nc2ccc(Br)cn2)COc2ccccc2OC1`, the activation is inactive: 20.2%.
The value for `Cc1ccc(OCC(=O)OC2CN3CCC2CC3)cc1` (centres undefined) was inactive: 25.3%.
The same measure for `O=[As](O)(c1cccs1)c1cccs1`: inactive: -2.05%; for `CCOP1(=S)c2c(C)nn(CCC#N)c2N=C(c2ccccc2F)N1C` (centres undefined): inactive: 13.8%; for `O=P(Nc1nccs1)(c1ccccc1)c1nc2ccccc2s1` (centres undefined): inactive: 14.3%.
The value for `O=P(Nc1nccs1)(Oc1ccccc1)Oc1ccccc1` was inactive: 5.69%; that for `CS(=O)(=O)c1cc([N+](=O)[O-])c2no[n+]([O-])c2c1` was inactive: 17.2%; that for `O=C(O)COc1ccc([As](=O)(O)O)cc1[N+](=O)[O-]` was inactive: -1.64%.
Consider `Nc1ccccc1[As](=O)(O)c1ccccc1`, for which the activation is inactive: 2.71%.
The same measure for `NC(=O)Nc1ccc([As](=O)(O)O)cc1`: inactive: 11.4%; for `N#CCCN(C(=O)COC(=O)C(O)(c1ccccc1)c1ccccc1)c1ccc(F)cc1`: inactive: -16.9%.
The value for `CN(C(=O)Cc1ccccc1)[C@@H]1CC[C@]2(CCCO2)C[C@H]1N1CCCC1` was inactive: 22.8%; that for `CCOP1(=S)c2c(C)nn(CCC#N)c2N=C(c2ccc(F)cc2)N1C` (centres undefined) was inactive: -11.8%; that for `CN(C)C(=O)c1cc([N+](=O)[O-])cc2c1-c1c(cc([N+](=O)[O-])cc1[N+](=O)[O-])C2=O` was inactive: -10.8%.
The same measure for `O=[N+]([O-])c1ccc2c(c1)nnn2O`: inactive: 20.9%; for `CN(C(=O)Cc1ccc(Cl)c(Cl)c1)[C@H]1CC[C@@]2(CCCO2)C[C@@H]1N1CCCC1`: inactive: 15.7%; for `O=C(OC1CN2CCC1CC2)c1ccc(Cl)cc1` (centres undefined): inactive: 1.8%.
Turning to `O=[As](O)(O)c1cccnc1`, the activation is inactive: 10.9%.
The value for `CS(=O)(=O)c1ccc(Cl)c(NC(=O)COC(=O)C(O)(c2ccccc2)c2ccccc2)c1` was inactive: -7.74%; that for `O=[As](O)(c1cccc(O)c1)c1cccc(O)c1` was inactive: -1.89%.
As to `Cc1cccc(OCC(=O)OC2CN3CCC2CC3)c1` (centres undefined), the activation is inactive: 21.6%.
Turning to `Cc1ccc(NCCc2c([N+](=O)[O-])cc([N+](=O)[O-])cc2[N+](=O)[O-])cc1`, the activation is inactive: 20.8%.
The value for `Nc1cccc2c([As](=O)(O)O)cccc12` was inactive: 1.58%.
The same measure for `CCCOP(=S)(Nc1nc(N)cc(=O)[nH]1)OCCC`: inactive: 11.1%; for `C[C@H]1C(=O)O[C@@H]2CCN3CC=C(COC(=O)[C@](C)(O)[C@]1(C)O)[C@H]23`: inactive: 22.1%; for `COc1cc(C2NCCC3(OCCO3)C2(C)C)cc(OC)c1OC` (centres undefined): inactive: 8.71%.
The value for `CCOP(=O)(Nc1cccc2ccccc12)OCC` was inactive: 16.3%.
Regarding `Cc1c2c(nc3ccccc13)SC(C(Cl)Cl)C2` (centres undefined), the activation is inactive: 12.9%.
Regarding `O=C(OC1CN2CCC1CC2)C12CC3CC(CC(C3)C1)C2` (centres undefined), the activation was inactive: 18.6%.
For the molecule `Cc1cc(=O)[nH]c(N[N+](=O)[O-])n1`, the activation is inactive: -7.2%.
The value for `O=P1(N(CCCl)CCCl)Nc2ccccc2N1` was inactive: 5.96%; that for `O=P1(N(CCCl)CCCl)OCCCN1CCCl` (centres undefined) was inactive: 11.9%.
The same measure for `COc1ccc2nc(NP(=O)(c3ccccc3)c3ccccc3)sc2c1`: inactive: 7.31%; for `COc1cc(I)ccc1[As](=O)(O)O`: inactive: 9.98%; for `O=[N+]([O-])c1cc(Oc2ccc([N+](=O)[O-])cc2C(F)(F)F)cc([N+](=O)[O-])c1`: inactive: 1.77%.
The same measure for `COc1ccc(N/C(=N/P(=O)(N2CCOCC2)N2CCOCC2)N2CCOCC2)cc1`: inactive: 6.86%; for `C[As](=O)(O)c1cccc(C(=O)O)c1`: inactive: 4.91%; for `O=[As](O)(c1ccc(O)cc1)c1ccccc1O`: inactive: 17.8%.
On to `O=[N+]([O-])c1ccc(-c2cc([N+](=O)[O-])c(O)c([N+](=O)[O-])c2)cc1`, for which the activation is inactive: -1.42%.
On to `Cc1ccc(OP(=O)(Nc2ccc([N+](=O)[O-])cn2)Oc2ccc(C)cc2)cc1`, for which the activation was inactive: 11.2%.
Consider `[N-]=[N+]=NC1CCCCC1NC(=O)c1cc([N+](=O)[O-])cc([N+](=O)[O-])c1` (centres undefined), for which the activation is inactive: 7.35%.
The same measure for `CC(Cc1ccc(O)cc1)NCC(O)c1cc(O)cc(O)c1` (centres undefined): inactive: -0.31%; for `Cc1ccc2nc3c(c(C)c2c1)CC(C(Cl)Cl)S3` (centres undefined): inactive: 22.8%.
For `ClCCSc1nnc(-c2cccnc2)o1`, the activation was inactive: 13.7%.
The value for `CC(C)c1ccc(OP(=O)(Nc2ccccn2)Oc2ccccc2F)cc1` (centres undefined) was inactive: 0.66%; that for `COC(=O)C1(C)COP(=O)(N2CCCCCC2)OC1` (centres undefined) was inactive: 20.9%.
With `CCN(CC)C(=S)SC(NC=O)C(Cl)(Cl)Cl` (centres undefined), the activation was inactive: 3.73%.
The same measure for `O=C(OC1CN2CCC1CC2)c1cccc2[nH]cnc12` (centres undefined): inactive: -13.6%.
The value for `CC(C)NC(=O)NP(=O)(Oc1ccccc1)Oc1ccccc1` was inactive: -7.01%.
For the molecule `O=[N+]([O-])c1cc([N+](=O)[O-])c(-c2ccn[nH]2)s1`, the activation is inactive: -0.95%.
The value for `O=C(O)C(O)c1ccc(N(CCCl)CCCl)cc1` (centres undefined) was inactive: -9.23%; that for `CCOC(=O)Nc1ccc([As](=O)(O)O)c(O)c1` was inactive: 18%; that for `CC1CCNP(=O)(N(CCCl)CCCl)O1` (centres undefined) was inactive: 0.19%.
The same measure for `C/C=C1/CC(C)C(C)(O)C(=O)OCC2CCN3CCC(OC1=O)C23` (centres undefined): inactive: 21.9%; for `COP(=O)(OC)N1CC1c1ccccc1` (centres undefined): inactive: -15.2%; for `Cc1cc(SC(NC(=O)c2ccccc2)C(Cl)(Cl)Cl)nc(C(C)C)n1` (centres undefined): inactive: 0.26%.
`CCOC(=O)Nc1cccc([As](=O)(O)O)c1`: the activation was inactive: -3.29%.
The value for `Cc1cc(SC(NC=O)C(Cl)(Cl)Cl)ncn1` (centres undefined) was inactive: 34%; that for `O=P(Nc1ccccn1)(c1cccc2ccccc12)c1cccc2ccccc12` was inactive: 23.4%.
The value for `O=[N+]([O-])c1ccc(Nc2ccc(Oc3ccc([N+](=O)[O-])cc3[N+](=O)[O-])cc2)c([N+](=O)[O-])c1` was inactive: -1.12%.
As for `COP1(=S)c2c(C)nn(CCC#N)c2N=C(c2ccc(F)cc2)N1C` (centres undefined), the activation was inactive: 17.4%.
With `COC(=O)C1(C)COP(=O)(N2CCCC2)OC1` (centres undefined), the activation was inactive: 8.14%.
The same measure for `O=C(O)C(=O)c1ccc(N(CCCl)CCCl)cc1`: inactive: 16.4%.
The value for `O=C(COc1ccccc1)OC1CN2CCC1CC2` (centres undefined) was inactive: 11.8%; that for `O=C(Nc1ccncc1[N+](=O)[O-])c1ccc([N+](=O)[O-])cc1[N+](=O)[O-]` was inactive: -8.34%; that for `O=C(OC1CN2CCC1CC2)c1cccc([N+](=O)[O-])c1` (centres undefined) was inactive: 24%.
As to `CSc1ccc(Nc2c([N+](=O)[O-])cc([N+](=O)[O-])cc2[N+](=O)[O-])cc1`, the activation was inactive: 3.22%.
As to `CCOC(=O)c1ccc(NC(=O)C(C)(CCl)SC)cc1` (centres undefined), the activation is inactive: 17.3%.
For the molecule `CCC(C)N(CC(C)C)C(=S)SC(NC(C)=O)C(Cl)(Cl)Cl` (centres undefined), the activation is inactive: 15%.
The value for `COc1ccc(C2=NCC(CBr)S2)cc1` (centres undefined) was inactive: 24.4%; that for `Cc1ccc(NP(=O)(Oc2ccccc2)Oc2ccccc2)nc1` was inactive: 6.81%.
The same measure for `O=[N+]([O-])c1cc([N+](=O)[O-])c(CCNc2ccccc2)c([N+](=O)[O-])c1`: inactive: 5.68%.
The value for `CCc1nc2c(n1)c1c(non1O)c1c2no[n+]1[O-]` was inactive: 4.79%.
With `CC(=O)N1C2C3N(C(C)=O)C1C1N(C(C)=O)C(C(N1C(C)=O)N3C(C)=O)N2C(C)=O`, the activation is inactive: 18.2%.
On to `O=[N+]([O-])c1cccc2n[nH]nc12`, for which the activation is inactive: -5.92%.
Take `CCN(/C(=N/P(=O)(N1CCOCC1)N1CCOCC1)N1CCOCC1)c1ccc(OC)cc1`: the activation was inactive: 26.7%.
Regarding `Nc1ccc([As](=O)(O)c2ccc(N)cc2)cc1`, the activation is inactive: 6.18%.
Regarding `C[N+]1=C2C=CC=CC=C2SC12C([N+](=O)[O-])=CC([N+](=O)[O-])=C[C-]2[N+](=O)[O-]` (centres undefined), the activation was inactive: -13.8%.

The record behind these values is PubChem BioAssay AID602247 (The Scripps Research Institute Molecular Screening Center, 2012).
